How the values were obtained:
Homo sapiens [1] = organism: Homo sapiens; experiment: Selectivity index, ratio of IC50 for inhibition of PRMT1 (unknown origin) to IC50 for Inhibition of recombinant human N-terminal FLAG-tagged PRMT5 (2 to end residues) /human N-terminal His-tagged MEP50 (2 to end residues) expressed in HEK293F cells; format: cell-based
Homo sapiens [2] = organism: Homo sapiens; experiment: Selectivity index, ratio of IC50 for inhibition of PRMT4 (unknown origin) to IC50 for Inhibition of recombinant human N-terminal FLAG-tagged PRMT5 (2 to end residues) /human N-terminal His-tagged MEP50 (2 to end residues) expressed in HEK293F cells; format: cell-based

N#Cc1c(Br)cccc1NC(=O)CCN1CCc2ccccc2C1
Ratio IC50 (Homo sapiens [1]): > 70
Ratio IC50 (Homo sapiens [2]): > 70

— ChEMBL document CHEMBL4325864, “Discovery of new potent protein arginine methyltransferase 5 (PRMT5) inhibitors by assembly of key pharmacophores from known inhibitors” (Bioorg Med Chem Lett, 2018)
